System: suppressive activity of CD4+CD25+ regulatory T cells (Treg) on Teff proliferation
Assay: Inhibition assay (co-culturing of Teff with Treg), [3H]-thymidine incorporation
Format: cell-based, mouse
Procedure: (xvi) Activation of CD4^+CD25^+ regulatory T cells. Purified regulatory T cells (Treg; 0.5×10^6 cells/mL) were activated in RPMI medium supplemented with L-glutamine (2 mM), 2-mercaptoethanol (5×10^−5 M), sodium pyruvate (1 mM), penicillin (100 IU/mL), streptomycin (100 μg/mL), nonessential amino acids (1 mL/100 mL), and autologous serum 2% (vol/vol) in the presence of mrIL-2 (5 ng/mL) and soluble anti-CD3 antibodies (1 ng/mL). Irradiated (2500 rad) splenocytes (1.5×10^6 cells/mL) were added to the culture. Cells were activated for 24 or 96 h. In some of the 96-h experiments, fresh dopamine was added to the culture every 24 h during activation.
(xvii) Inhibition assay (co-culturing of Teff with Treg). Naïve effector T cells (Teff; 50×10^3 cells/well) were co-cultured with decreasing numbers of activated Treg for 72 h in 96-well flat-bottomed plates in the presence of irradiated splenocytes (10^6/mL) supplemented with anti-CD3 antibodies. [^3H]-thymidine (1 μCi) was added for the last 16 h of culture. After the cells were harvested, their [^3H]-thymidine content was analyzed by the use of […].
In this experiment, we examined whether dopamine acts on Treg and alters their suppressive effect on Teff. Suppression of proliferation of Teff, assayed by [^3H]thymidine incorporation, was used as a measure of suppressive effect of Treg (Thornton and Shevach, 1998).
Shevach, 1998, 2000). […]

**Q.** How did the “Effect on suppressive activity of Treg, compound alone” value turn out when `CCCN1CCC[C@@H]2Cc3n[nH]cc3C[C@H]21` [quinpirole] was run?
**A.** Its value is “had no effect”.

**Q.** And the “Effect on the dopamine effect on Treg suppressive activity” value?
**A.** The value was “did not alter the effect of dopamine”.
